Laboratory results taken from patent US20150093335A1, “CELL-TARGETED MAGNETIC NANO-MATERIAL AND BIOMEDICAL USES THEREOF” (Institute of Geology and Geophysics, Chinese Academy of …, priority 2012, published 2015).

Tested on: MDA-MB-231 tumor
Assay: In vivo near-infrared fluorescence imaging (tumor about 3 mm)
Set-up: species or system nude mouse
Conditions: 3 h after tail vein injection
Experimental: Human H-subunit magnetoferritin is labeled with near-infrared fluorescent stain Cy5.5 (that is, Cy5.5 is linked to human H-subunit magnetoferritin by covalent bonds), and thus becomes a tumor targeted fluorescent molecular probe. When MDA-MB-231 tumor grows to about 3 mm, human H-subunit magnetoferritins labeled with Cy5.5 are injected through tail vein, and then scanned with in vivo fluorescence imaging system CRI Metro™ to observe its relative in vivo distribution. FIG. 11 is the in vivo fluorescence image 3 h after human H-subunit magnetoferritins are injected.

human H-subunit magnetoferritin labeled with Cy5.5
in vivo fluorescence in the tumor area: relatively strong fluorescent intensity distributed in the tumor area
